System: MRC5 cells
Test: Cytotoxicity assay in MRC5 cells without viral infection (CellTiter Glo)
Settings: 5 days, no viral infection
Procedure: MRC5 cells were cultured in MEM (Sigma) culture medium supplemented with 10% fetal bovine serum (Excell), 1% double antibodies (Hyclone), 1% L-glutamine (Gibco) and 1% non-essential amino acids (Gibco). The MEM (Sigma) medium supplemented with 5% fetal bovine serum (Excell), 1% double antibodies (Hyclone), 1% L-glutamine (Gibco) and 1% non-essential amino acids (Gibco) was used as an experimental culture medium.
Cells were seeded into a 96-well microplate at a certain density (Table 2), and cultured overnight in a 5% CO2, 37° C. incubator. The next day, doubly diluted compounds, with 8 concentration points and duplicate wells, were added 50 μL per well. Then the diluted viruses were added to the cells at 100 TCID50 per well, 50 μL per well. A cell control (cells, without compound treatment or viral infection), a virus control (cells infected with viruses, without compound treatment) and a medium control (only medium) were set. The final volume of the culture medium for this experiment was 200 μL, and the final concentration of DMSO in the culture medium was 0.5%, respectively. […]
Nonlinear fitting analysis was performed by GraphPad Prism on the inhibition rate and cell viability of the compounds, and the half effective concentration (EC50) and half cytotoxic concentration (CC50) values of the compounds were calculated, with the experimental results shown in Table 3.

With `CC(C)(C)[C@H](NC(=O)C(F)(F)F)C(=O)N1CC2C(CCC23CC3)C1C(=O)N[C@@H](C[C@@H]1CCNC1=O)C(=O)C(=O)NC1CCCC1` (stereo partly shown) the CC50 was > 10 µM.

From US20240287043A1, “KETOAMIDE DERIVATIVE AND APPLICATION THEREOF” (GUANGDONG RAYNOVENT BIOTECH CO., LTD., priority 2021, published 2024)
